Results reported in ChEMBL document CHEMBL1139307, “1-Naphthyl and 4-indolyl arylalkylamines as selective monoamine reuptake inhibitors” (Bioorg Med Chem Lett, 2009).

The chains behind the UniProt entries cited, without tags or fusion partners.
UniProt P31652, whole entry: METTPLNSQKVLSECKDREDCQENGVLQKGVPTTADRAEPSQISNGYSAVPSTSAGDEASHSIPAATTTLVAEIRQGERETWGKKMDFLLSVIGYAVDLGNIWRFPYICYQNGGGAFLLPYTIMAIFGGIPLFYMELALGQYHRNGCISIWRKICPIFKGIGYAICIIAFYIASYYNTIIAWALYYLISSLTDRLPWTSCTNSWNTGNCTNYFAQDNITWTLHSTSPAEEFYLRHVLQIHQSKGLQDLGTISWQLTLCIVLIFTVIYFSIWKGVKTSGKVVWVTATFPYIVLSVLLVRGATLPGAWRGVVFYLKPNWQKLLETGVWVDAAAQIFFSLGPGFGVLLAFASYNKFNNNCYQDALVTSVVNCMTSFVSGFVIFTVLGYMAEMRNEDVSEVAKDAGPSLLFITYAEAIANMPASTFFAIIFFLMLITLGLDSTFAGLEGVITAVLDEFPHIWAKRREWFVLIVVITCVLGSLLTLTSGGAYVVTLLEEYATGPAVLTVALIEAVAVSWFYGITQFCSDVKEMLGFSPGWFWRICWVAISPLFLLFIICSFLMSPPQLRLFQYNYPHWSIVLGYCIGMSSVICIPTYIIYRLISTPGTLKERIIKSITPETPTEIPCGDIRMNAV

Biological target: Sodium-dependent serotonin transporter (Rattus norvegicus, UniProt P31652)
Assay: Displacement of [3H]citalopram from SERT in Sprague-dawley rat frontal cortex by liquid scintillation spectrophotometry
Type: tissue-based

Ki [nM]	SMILES
277	CNCCC(Oc1ccccc1OC)c1ccccc1 (racemic) [NISOXETINE]
1500	CNCC[C@@H](Oc1ccccc1C)c1ccccc1 (racemic) [ATOMOXETINE]
